This is a selection; strong and weak results do not stand in their true shares. Some results for these compounds are left out of this collection, so the calls shown say nothing about other tests. The source made the active and inactive calls.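 How the source made its calls: active means inhibition at 2 µM at or above a set limit, the screen mean plus 3 SD (cut at about 24% in these data); inactive means the rest.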
Molecular target: Tyrosine-protein phosphatase non-receptor type 22 (Homo sapiens) (UniProt Q9Y2R2)
Experiment: blockers of human LYP enzyme activity – biochemical, DiFMUP fluorescence, 2 µM, primary screen (AID 640);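 further: 0% = DMSO with enzyme and 100% = enzyme fully blocked by orthovanadate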
Details: recombinant LYP catalytic domain, at 2 µM, stronger effect = higher value

The chains behind the UniProt entries cited, without tags or fusion partners.
UniProt Q9Y2R2, whole entry: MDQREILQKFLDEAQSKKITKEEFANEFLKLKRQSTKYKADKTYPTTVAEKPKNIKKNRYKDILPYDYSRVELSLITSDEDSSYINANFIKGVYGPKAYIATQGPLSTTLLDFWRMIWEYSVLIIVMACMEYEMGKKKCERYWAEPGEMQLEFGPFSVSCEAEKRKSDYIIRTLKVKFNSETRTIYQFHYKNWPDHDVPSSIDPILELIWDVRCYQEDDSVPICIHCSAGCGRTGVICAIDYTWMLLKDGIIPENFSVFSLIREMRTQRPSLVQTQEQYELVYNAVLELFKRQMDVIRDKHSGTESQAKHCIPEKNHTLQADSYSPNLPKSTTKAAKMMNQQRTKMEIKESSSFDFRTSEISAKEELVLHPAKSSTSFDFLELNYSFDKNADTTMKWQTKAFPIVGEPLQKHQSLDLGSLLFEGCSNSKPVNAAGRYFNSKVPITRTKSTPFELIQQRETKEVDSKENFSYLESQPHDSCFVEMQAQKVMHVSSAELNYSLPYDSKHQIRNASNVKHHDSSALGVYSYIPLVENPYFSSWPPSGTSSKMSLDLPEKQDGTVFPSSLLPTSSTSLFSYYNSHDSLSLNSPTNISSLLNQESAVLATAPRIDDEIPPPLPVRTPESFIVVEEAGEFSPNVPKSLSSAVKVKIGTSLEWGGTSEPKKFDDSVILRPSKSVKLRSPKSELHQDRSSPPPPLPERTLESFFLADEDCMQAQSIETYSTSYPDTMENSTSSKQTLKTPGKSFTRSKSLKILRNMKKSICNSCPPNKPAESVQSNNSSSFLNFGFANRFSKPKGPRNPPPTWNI

Row | SMILES | inhibition
1 | CN(C)c1cccc(C(=O)NCC2(N(C)C)CCCCC2)c1 | inactive: 0.6%
2 | O=C(OC1CN2CCC1CC2)C(CO)(c1ccccc1)c1ccccc1 (stereo not drawn) | inactive: 4.8%
3 | CC(C)N1C(=O)CC2(CCN(CCOC(=O)C(O)(c3ccccc3)c3ccccc3)CC2)C1=O | inactive: 5.7%
